From US11506654B2, “Method, composition and kit for screening ALK or ROS-1 kinase inhibitor” (KOREA INSTITUTE OF SCIENCE AND TECHNOLOGY, priority 2018, dated 2022)

Test system: HCC-78 cell line
Test: Change in metabolites in HCC-78 cell line after ALK/ROS-1 kinase inhibitor treatment, UHPLC-MS
Assay type: cell-based
Settings: HCC-78, 1 μM, 24 hours, n=5
Description: HCC-78 lung cancer cells were cultured in a 5% carbon dioxide cell incubator at a temperature of 37° C. using a RPMI medium containing 10% fetal bovine serum and 1% antibiotic. Thereafter, when the cell growth was stabilized, the cells were treated with each of crizotinib and ceritinib of ALK and ROS-1 kinase inhibitors at a concentration of 1 μM so as to have a percentage of 0.01% of the total medium and then cultured for 24 hours. At this time, as a control group, DMSO (dimethyl sulfoxide) was added to the cells in an amount to be 0.01% of the total medium, and the cells were cultured for 24 hours. Each cell was cultured in 5 cell dishes for each group so that the total number of experiments for each group was 5 (n=5).
After the culture time of 24 hours had elapsed, the medium was removed, and the cells were washed two times with PBS (phosphate buffered saline). The cells were then acquired from the culture dish using a cell scraper, put in a tube, and stored at −80° C.
For mass analysis, 120 μL of a 70% methanol solution containing 2 μg/mL of reserpine as an internal standard substance was added to the cells obtained in Example 2-1, and then the mixture was subjected to vortexing so as to allow the cells to mix well. Thereafter, a process in which the mixed solution was frozen using liquid nitrogen, dissolved in water at room temperature, and then sonicated for 30 seconds was repeated three times to destroy the cells. Thereafter, the resultant mixed solution was subjected to centrifugation at 14000 rpm for 10 minutes, and only the supernatant was separated from this. At this time, DNA quantitation was conducted in order to correct the cell volume of the intracellular fluid extract acquired according to the series of procedures. DNA quantitation was conducted by mixing the extract with water at a ratio of 1:3, putting 5 μL of the mixture in a cuvette, and measuring the quantity at 260 nm by using a spectrophotometer Nano-MD of SHINKO CO., LTD. […]

C[C@@H](Oc1cc(-c2cnn(C3CCNCC3)c2)cnc1N)c1c(Cl)ccc(F)c1Cl [crizotinib]
AMP increase as compared with control group: 140.79% | adenosine decrease as compared with control group: 93.43% | cAMP decrease as compared with control group: 72.03%
